# MLL AF4-AF9 inh: inhibitors of AF4 peptide binding to AF9, primary screen, biochemical, AlphaScreen, biotin-AF4 peptide, FLAG-AF9, single point; hit rate 0.47% among 350,000; inhibition, % at 10 µM; AID 651704, 2012;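 active = every replicate reaching a set inhibition limit, whatever the replicate mean, cut at about 25% in these data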
# UUG fidelity: alters start codon recognition fidelity in yeast. S. cerevisiae UUG-firefly luciferase reporter, luminescence/redox ratio. activity score, % at 18.7 µM. 0.13% of 350,000 active. AID 602363;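 active = replicate mean at a twofold rise or more, about +100% in these data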;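 also: firefly luciferase made from a UUG start codon reports start codon fidelity; reporter light over untreated wells divided by growth signal over untreated wells; some hits fall short of that in this replicate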
# S100A4 inh HTS: inhibitors of S100A4-myosin IIA peptide binding, primary screen, biochemical, fluorescence polarization, TAMRA-MyoIIA peptide | hit rate 0.14% among 360,000 | inhibition, % at 10.7 µM;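 active = mean inhibition of at least 70% across replicates, with every replicate also reaching that level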
#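 Test system – S100A4 monomer (human) · Compound – single-point compound testing · Schedule – 5 min incubation before reading · Probe or stimulus – TAMRA-labelled myosin IIA heavy-chain peptide probe, 5 nM · Benchmarks – neutral control DMSO, positive control TFP · Medium – Calcium-containing HEPES buffer, pH 7.2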
# ERAP1 HTS inh: human ERAP1 aminopeptidase inhibitors, primary screen, biochemical, single point, plate reader; AID 652197, 2013; inhibition, % at 10.7 µM; Endoplasmic reticulum aminopeptidase 1 (Homo sapiens), Q9NZ08; recombinant ERAP1, Leu-AMC fluorescence, 60 min; hit rate 0.15% among 340,000;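 active = mean replicate inhibition of at least 30%, or all replicates individually reaching that 30% level; inactive = mean below 30% and not every replicate reaching it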
# E-sel inducer: E-selectin induction in HUVECs, primary screen, imaging, HUVEC, immunofluorescence imaging, single point; hit rate 0.37% among 260,000; activation, % at 7.58 µM; AID 686992, 2013; normalized: neutral wells 0, TNF-alpha wells 100; P16581;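 active = mean E-selectin-positive cell signal at least 10% of the positive control, reached in at least 60% of replicates, without over 20% cell loss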
#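 Test system: HUVEC; input: 3,000 HUVEC/well; measured by: immunofluorescence imaging; read-out: % PE-positive cells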
# ARNT TACC3 PPI: disruptors of ARNT/TACC3 protein interaction, primary screen, biochemical, AlphaScreen, single concentration; AID 623870, 2012; hit rate 0.66% among 390,000; AlphaScreen His-ARNT PAS-B/GST-TACC3 binding, luminescence; TACC3 fragment carries E629A point mutation; inhibition, % at 9.99 µM; Transforming acidic coiled-coil-containing protein 3 (Homo sapiens), Q9Y6A5;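 active = mean inhibition of replicates at least 50% and at least half of replicates each reaching 50%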
# A number is an active result; i = inactive; nt = no result. The list is not random: actives were taken first. Their share in the collection is about 1.3%.
SMILES,MLL AF4-AF9 inh,UUG fidelity,S100A4 inh HTS,ERAP1 HTS inh,E-sel inducer,ARNT TACC3 PPI
C[C@H](CO)N1C[C@H](C)[C@H](CN(C)C(=O)Nc2ccccc2)Oc2c(NC(=O)Nc3ccccc3)cccc2C1=O,i,i,i,i,i,i
O=C(NCCN1CCCC1)[C@@H]1[C@@H](CO)[C@@H]2Cn3c(cccc3=O)[C@H]1N2C(=O)NC1CCCC1,i,nt,i,i,i,nt
CCn1nc(NC(C)=O)c2cc3cccc(C)c3nc21,i,i,i,75.0,i,i
O=[N+]([O-])c1ccccc1CN1CCN(S(=O)(=O)Cc2ccccc2)CC1,i,i,104.6,i,nt,i
CN(C)c1ccc(NC(=O)CN2CCC(NC(=O)C3CCCCC3)CC2)cc1,50.8,nt,i,i,i,i
O=C(Cc1ccccn1)N[C@H]1CC[C@H](CCn2cc(-c3ccc(F)cc3)nn2)O[C@@H]1CO,i,nt,i,i,i,nt
O=C(COc1ccccc1)N/N=C/c1sc(=O)n(Cc2cccc(C(=O)O)c2)c1Cl,i,nt,i,nt,i,i
O=C(O)c1cccc(Cn2c(Cl)c(/C=N/NC(=O)c3ccc(O)cc3)sc2=O)c1,i,i,i,i,nt,41.1
COc1ccccc1N1CCN(C(=O)c2ccco2)CC1,i,i,i,i,34.5,i
COc1ccccc1NC(=S)Nc1cccc2cnccc12,i,nt,i,i,i,75.8
Fc1ccc(NC(=S)Nc2cccc3cnccc23)cc1,i,nt,i,i,i,i
COc1ccc(NC(=S)Nc2cccc3cnccc23)cc1,nt,i,nt,nt,nt,15.0
CCCc1cn(CC[C@@H]2CC[C@@H](NC(=O)C3CCCC3)[C@@H](CO)O2)nn1,i,i,i,i,i,i
C/C(CC(=O)Nc1ccc(N(C)C)cc1)=N\NC(=O)c1cnccn1,nt,i,nt,nt,i,nt
C/C(CC(=O)Nc1ccc(N(C)C)cc1)=N\NC(=O)c1ccccn1,nt,i,nt,nt,nt,51.7
CN(C)c1ccc(NC(=O)CC(NCc2ccccn2)C(=O)O)cc1 (stereo not drawn),nt,i,nt,nt,nt,76.9
CC(=O)Nc1ccc(NC(=O)COc2ccc(Cl)cc2Cl)cc1,i,i,i,i,47.5,i
COc1cccc(S(=O)(=O)N[C@H]2CC[C@H](CCn3cc(-c4ccc(F)cc4)nn3)O[C@H]2CO)c1,i,i,i,i,i,i
O=c1c2c(nc3c(-c4ccc(Cl)cc4)c[nH]n13)CCC2,i,i,i,i,i,46.0
CC(C)NC(=O)Nc1ccc2c(c1)C(=O)N([C@@H](C)CO)C[C@H](C)[C@@H](CN(C)Cc1ccc(C(F)(F)F)cc1)O2,i,i,i,i,89.1,i
CC(C)NC(=O)Nc1ccc2c(c1)C(=O)N([C@@H](C)CO)C[C@@H](C)[C@@H](CN(C)Cc1ccc(C(F)(F)F)cc1)O2,i,i,i,i,59.3,i
CC(=O)N(C)C[C@@H]1Oc2cc(-c3cccc(F)c3)ccc2S(=O)(=O)N([C@@H](C)CO)C[C@H]1C,i,i,i,i,i,i
C[C@H]1CN([C@@H](C)CO)C(=O)c2cc(C#Cc3ccccc3)cnc2O[C@@H]1CN(C)C(=O)CN(C)C,i,i,i,i,i,i
COc1ccc(-c2cc(=O)oc3cc(OC(C)C(=O)NC(Cc4c[nH]c5ccc(O)cc45)C(=O)O)ccc23)cc1 (stereo not drawn),i,i,i,30.7,nt,i
CC(Oc1ccc2c(-c3ccccc3)cc(=O)oc2c1)C(=O)N[C@H](Cc1c[nH]c2ccccc12)C(=O)O (stereo partly drawn),i,i,i,i,nt,i
SMILES,MLL AF4-AF9 inh,UUG fidelity,S100A4 inh HTS,ERAP1 HTS inh,E-sel inducer,ARNT TACC3 PPI
CC(=O)N1CCc2c(sc(NC(=O)C3COc4ccccc4O3)c2C(N)=O)C1 (stereo not drawn),i,i,i,i,i,i
Cc1nc2cc(NC(=O)C3COc4ccccc4O3)ccc2s1 (stereo not drawn),i,i,i,90.4,i,i
CSc1nc2ccc3nc(NC(=O)C4COc5ccccc5O4)sc3c2s1 (stereo not drawn),i,i,i,i,i,i
CN1CCc2c(sc(NC(=O)C3COc4ccccc4O3)c2C(N)=O)C1 (stereo not drawn),i,i,105.6,i,i,i
Cc1nc2ccc3nc(NC(=O)C4COc5ccccc5O4)sc3c2s1 (stereo not drawn),47.6,i,i,i,i,i
O=[N+]([O-])c1ccc(N2CCN(c3ccc([N+](=O)[O-])cc3CO)CC2)c(CO)c1,i,i,i,i,45.1,i
C[C@@H]1CN([C@@H](C)CO)S(=O)(=O)c2ccc(-c3cccnc3)cc2O[C@H]1CN(C)C(=O)C1CC1,nt,nt,nt,nt,i,nt
COc1cccc(CNS(=O)(=O)c2cc(CN3C(=O)c4cccnc4C3=O)ccc2OC)c1,i,i,i,i,i,49.7
O=C(c1ccccn1)N1C[C@H]2[C@@H](c3ccccc31)[C@@H](CO)N2C(=O)CC1CC1,i,i,i,i,i,45.1
O=C(c1ccccn1)N1C[C@H]2[C@@H](c3ccccc31)[C@H](CO)N2C(=O)CC1CC1,i,i,i,i,i,i
O=C(c1ccccn1)N1C[C@@H]2[C@H](c3ccccc31)[C@H](CO)N2C(=O)C1CC1,i,i,i,i,i,49.2
O=C(c1ccccn1)N1C[C@H]2[C@@H](c3ccccc31)[C@H](CO)N2C(=O)C1CCCC1,i,i,i,i,i,i
CCCC(=O)Nc1ccc2c(c1)OC[C@H](C)N(C(C)=O)C[C@H](C)[C@@H](OC)CN(C)C2=O,i,nt,i,i,i,nt
COC(=O)/C=C1\N/C(=N\c2nc(C)cc(C)n2)N(c2ccc(C)cc2)C1=O,i,nt,i,i,465.9,i
CCCCCCC/C=N/Nc1nnc(Cc2ccccc2)c(=O)[nH]1,i,i,i,i,i,i
COc1ccc(Cc2nnc(N/N=C/c3ccc(O)cc3O)[nH]c2=O)cc1OC,i,nt,i,i,i,62.2
CCCCCC/C=N/Nc1nnc(Cc2ccc(OC)c(OC)c2)c(=O)[nH]1,i,i,i,i,i,54.0
Cc1ccc(/C=N/Nc2nnc(Cc3ccccc3)c(=O)[nH]2)o1,i,nt,i,i,nt,nt
Cc1noc(C)c1NC(=O)Nc1ccc2c(c1)CC(=O)N([C@@H](C)CO)C[C@H](C)[C@@H](CN(C)S(=O)(=O)c1cn(C)cn1)O2,nt,i,nt,nt,i,i
CC1(C)C[C@@H]2C[C@@](C)(CN2C(=O)c2ccccc2)C1,i,i,i,nt,nt,i
CC1(C)CC2CC(C)(CN2/C=C2/CCCCC2=O)C1 (stereo not drawn),32.2,i,i,i,i,i
